Experimental data taken from patent publication US9938562B2, “Naphthalene derived chromogenic enzyme substrates” (Glycosynth Limited, priority 2013, dated 2018).

Assays:
[1] = test system: Bacillus subtilis NCTC 9372; assay: Agar plate multi-point inoculation, colour; assay type: cell-based; conditions: Columbia agar, FAC 500 mg/L, substrate 300 mg/L, 37° C. 18 h in air

For “DHN-6-sulfonic acid-phosphate trisodium salt”, the Colour [1] was “−” and the “solubility in water / aqueous media” value (Solubility in water) was “very soluble”.

Some compounds may have been tested in ways that are not shown here.
